Assay: Pharmacokinetics of VCM after intravenous administration to control and PN rats
Conditions: control rats, 5 mg/kg intravenous bolus, two-compartment model, plasma LC/MS/MS, mean of n = 4

CN[C@H](CC(C)C)C(=O)N[C@H]1C(=O)N[C@@H](CC(N)=O)C(=O)N[C@H]2C(=O)N[C@H]3C(=O)N[C@H](C(=O)N[C@H](C(=O)O)c4cc(O)cc(O)c4-c4cc3ccc4O)[C@H](O)c3ccc(c(Cl)c3)Oc3cc2cc(c3O[C@@H]2O[C@H](CO)[C@@H](O)[C@H](O)[C@H]2O[C@H]2C[C@](C)(N)[C@H](O)[C@H](C)O2)Oc2ccc(cc2Cl)[C@H]1O [VCM, vancomycin]
t1/2β (elimination half-life): 75.7 min

From paper PMC4546118 (SpringerPlus, 2015)
